The record followed here is patent publication US9163044B2, “Carbon monoxide releasing molecules and uses thereof” (Alfama, Inc., priority 2011, dated 2015).

For the experiment, the system named is APAP-induced acute liver failure (ALF) model. Nature of the experiment: APAP-induced acute liver failure (ALF) model, sublethal (300 mg/kg APAP i.p.). Format: in vivo, C57Bl/6 male mice. Here is the method:
Compound 3b was studied in a sublethal model for acetaminophen (APAP)-induced Liver Injury.
ALF was induced in C57Bl/6 male mice with a single dose of acetaminophen (300 mg/kg) by i.p. injection. […] Serum alanine aminotransferase (ALT) was measured 22 h after APAP injection (n=5 mice for each group). […] ALF was induced in C57Bl/6 male mice with a single dose of acetaminophen (300 mg/kg) by i.p. injection. […] Twenty-two hours after APAP injection serum ALT was measured (indicated in FIG. 11A), centrilobular sections of mouse livers were cut and stained with hematoxylin and eosin, and the percentage of liver necrosis was determined. The data indicates a dose-dependent reduction of ALT levels of 9% to 83% relative to APAP control, and a dose-dependent reduction of necrosis of 0% to 56% relative to APAP control.
(§1) ALF was induced in C57Bl/6 male mice with a single dose of acetaminophen (300 mg/kg) by i.p. injection. […] Alanine aminotransferase (ALT) was measured 22 h after APAP injection (n=4 or n=5 mice for each group).
ALF was induced in C57Bl/6 male mice with a single dose of acetaminophen (300 mg/kg) by i.p. injection. […] Twenty-two hours after APAP injection, serum ALT was measured (indicated in FIGS. 12A-12B), centrilobular sections of mouse livers were cut and stained with hematoxylin and eosin, and the percentage of liver necrosis was determined.
ALF was induced in C57Bl/6 male mice with a single dose of acetaminophen (300 mg/kg) by i.p. injection.
FIG. 14 depicts the effect of late treatment with Compound 3b on serum ALT in ALF model. ALF was induced in C57Bl/6 male mice with a single dose of acetaminophen (300 mg/kg) by i.p. injection. At sixteen hours after APAP injection, the animals were treated with different doses of Compound 3b (0.3, 3, 30 or 60 mg/kg). Alanine aminotransferase (ALT) was measured 22 h after APAP injection (n=4 or n=5 mice for each group).
as §1

[1] abbreviates: NAC 2 × 300 mg/kg at 1 h and 3 h post APAP.

Turning to `CC(=O)N[C@@H](CS)C(=O)O` [NAC, N-acetylcysteine, reference compound], the “liver histology: necrosis (in words)” value (Compound 3b 2×100 or 2×300 mg/kg, NAC 2×300 mg/kg, at one and three hours after APAP, 22 h) is “very little if any necrosis”. Moreover, under setting [1], the “% ALT increase relative to increase with APAP alone Experiment 1” value is 19.3 ± 8.7% and the “% ALT increase relative to increase with APAP alone Experiment 2” value is on record as 54.2 ± 17.5%.
